Laboratory results from patent publication US4507314A, “Drug for treating affections provoked by a too high histamine level, of the gastroduodenal mucosa and allergic affections” (Midit, Societe Fiduciaire, priority 1983, dated 1985).

Legend:
[1] = tested on: rat; conditions: daily per os during 6 weeks, 60480 min
[2] = tested on: Cynomolgus monkeys; conditions: daily per os during 5 weeks, 50400 min
[3] = tested on: rat; conditions: per os
[4] = tested on: human lymphocytes; conditions: in vitro

(+)-catechin hydrochlorolysinate was tested, and the “subacute toxicity: well tolerated at doses up to” value [1] was “up to 1000 mg/kg”, the “subacute toxicity: well tolerated at doses up to” value [2] was “up to 1000 mg/kg” and the acute toxicity ([3]; both sexes) was “over 6 g/kg”. For the same substance, the behavioural changes ([3]; up to 6 g/kg) was “did not cause behavioural changes”, the mortality ([3]; up to 6 g/kg) was “No mortality” and the “chromosomic aberrations on human lymphocytes” value [4] was “absence of chromosomic aberrations”.
